From patent US10138236B2, “Factor xia-inhibiting pyridobenzazepine and pyridobenzazocine derivatives” (BAYER PHARMA AKTIENGESELLSCHAFT, priority 2014, dated 2018)

Protein sequences, listed by entry. Tags and fused reporters are not part of them. Residues count along the entry.
UniProt P03951, 19-387 partner: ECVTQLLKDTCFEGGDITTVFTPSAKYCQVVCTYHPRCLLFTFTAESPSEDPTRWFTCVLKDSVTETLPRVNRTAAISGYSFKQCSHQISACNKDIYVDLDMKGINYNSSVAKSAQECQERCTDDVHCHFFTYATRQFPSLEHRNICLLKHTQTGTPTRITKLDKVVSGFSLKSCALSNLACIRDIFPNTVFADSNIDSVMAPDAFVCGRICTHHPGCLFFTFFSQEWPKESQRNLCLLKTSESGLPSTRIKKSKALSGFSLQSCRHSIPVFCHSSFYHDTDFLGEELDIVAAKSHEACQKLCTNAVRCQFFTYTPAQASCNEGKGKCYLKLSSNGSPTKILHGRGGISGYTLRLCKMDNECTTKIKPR
UniProt P03951, 388-625: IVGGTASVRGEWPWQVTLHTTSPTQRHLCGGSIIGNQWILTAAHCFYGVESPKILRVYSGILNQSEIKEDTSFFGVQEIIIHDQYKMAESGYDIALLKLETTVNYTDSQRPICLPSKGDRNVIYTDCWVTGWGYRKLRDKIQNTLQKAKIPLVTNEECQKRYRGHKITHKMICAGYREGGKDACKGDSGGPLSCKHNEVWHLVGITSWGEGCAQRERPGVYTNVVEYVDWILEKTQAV

Molecular target: human factor XIa (Homo sapiens (Human), UniProt P03951)
Test: Measurement of FXIa inhibition
Assay type: biochemical
Experimental: a.1) Measurement of FXIa Inhibition
The factor XIa inhibition of the substances according to the invention is determined using a biochemical test system which utilizes the reaction of a peptidic factor XIa substrate to determine the enzymatic activity of human factor XIa. Here, factor XIa cleaves from the peptic factor XIa substrate the C-terminal aminomethylcoumarin (AMC), the fluorescence of which is measured. The determinations are carried out in microtitre plates.
1 μl of the diluted substance solutions is placed into each of the wells of white microtitre plates from Greiner (384 wells). […] After 15 min of incubation, the enzyme reaction is started by addition of 20 μl of the factor XIa substrate Boc-Glu(OBzl)-Ala-Arg-AMC dissolved in assay buffer (10 μM in assay buffer) from Bachem, the mixture is incubated at room temperature (22° C.) for 30 min and fluorescence is then measured (excitation: 360 nm, emission: 460 nm). The measured emissions of the test batches with test substance are compared to those of control batches without test substance (only dimethyl sulphoxide instead of test substance in dimethyl sulphoxide), and IC50 values are calculated from the concentration/activity relationships.

Compound: COCCC(C(=O)Nc1ccc(C(N)=O)c(F)c1)n1cc2c(cc1=O)-c1cc(Cl)ccc1CC(CF)NC2=O (stereo not shown) [Example 32, 4-({2-[11-Chloro-7-(fluoromethyl)-2,5-dioxo-5,6,7,8-tetrahydropyrido[3,4-e][3]benzazocin-3(2H)-yl]-4-methoxybutanoyl}amino)-2-fluorobenzamide]
- IC50: 5.3 nM
